From ChEMBL document CHEMBL4665884, “Structural Insights into the Recognition of Mono- and Diacetylated Histones by the ATAD2B Bromodomain” (J Med Chem, 2020)

Target: T1, ATPase family AAA domain-containing protein 2 (Homo sapiens, UniProt Q6PL18)
T1 sequence (Q6PL18 whole entry): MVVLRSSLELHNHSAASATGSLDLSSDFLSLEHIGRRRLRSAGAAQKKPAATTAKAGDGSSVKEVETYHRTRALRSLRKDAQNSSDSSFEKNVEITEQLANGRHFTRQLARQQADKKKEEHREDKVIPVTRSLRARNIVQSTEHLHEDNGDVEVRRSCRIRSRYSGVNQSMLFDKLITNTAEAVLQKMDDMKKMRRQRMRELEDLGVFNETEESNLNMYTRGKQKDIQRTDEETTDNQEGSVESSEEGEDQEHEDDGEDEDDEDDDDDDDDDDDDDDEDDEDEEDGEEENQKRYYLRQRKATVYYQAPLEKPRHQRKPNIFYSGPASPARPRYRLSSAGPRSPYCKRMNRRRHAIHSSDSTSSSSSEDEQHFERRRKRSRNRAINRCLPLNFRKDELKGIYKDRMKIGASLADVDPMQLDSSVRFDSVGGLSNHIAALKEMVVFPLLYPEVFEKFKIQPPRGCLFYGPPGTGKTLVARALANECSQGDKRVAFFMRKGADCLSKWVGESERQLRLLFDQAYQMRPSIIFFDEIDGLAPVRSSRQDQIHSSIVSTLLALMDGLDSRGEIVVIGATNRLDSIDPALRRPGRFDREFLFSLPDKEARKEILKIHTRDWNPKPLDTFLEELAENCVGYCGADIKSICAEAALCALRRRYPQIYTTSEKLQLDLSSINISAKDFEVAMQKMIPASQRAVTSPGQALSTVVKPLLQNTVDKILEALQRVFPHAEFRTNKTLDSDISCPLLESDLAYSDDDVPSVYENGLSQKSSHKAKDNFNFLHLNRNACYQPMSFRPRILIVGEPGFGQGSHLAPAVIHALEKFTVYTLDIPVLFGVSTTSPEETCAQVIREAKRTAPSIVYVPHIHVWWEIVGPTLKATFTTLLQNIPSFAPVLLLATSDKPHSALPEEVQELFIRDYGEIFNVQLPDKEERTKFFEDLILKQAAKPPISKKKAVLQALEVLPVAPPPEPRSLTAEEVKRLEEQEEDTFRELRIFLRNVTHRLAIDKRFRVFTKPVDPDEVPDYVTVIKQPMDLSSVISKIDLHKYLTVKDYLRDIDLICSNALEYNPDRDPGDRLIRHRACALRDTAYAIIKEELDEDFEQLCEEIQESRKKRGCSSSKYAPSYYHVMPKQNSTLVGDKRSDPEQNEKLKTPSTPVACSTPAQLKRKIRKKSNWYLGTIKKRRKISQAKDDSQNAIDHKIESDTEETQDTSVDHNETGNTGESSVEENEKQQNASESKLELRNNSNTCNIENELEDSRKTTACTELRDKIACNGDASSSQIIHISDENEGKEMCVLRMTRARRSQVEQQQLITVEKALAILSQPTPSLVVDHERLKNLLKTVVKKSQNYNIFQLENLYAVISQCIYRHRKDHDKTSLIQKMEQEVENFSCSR
Assay: Binding affinity to N-terminal GST tagged human ATAD2 expressed in Escherichia coli by ITC analysis

Cc1cncc(-c2ccc(N[C@@H]3CCNC[C@H]3OCC3CCS(=O)(=O)CC3)c3[nH]c(=O)c(C)cc23)c1
Kd: 90 nM
